The text below walks through data of patent US20240408180A1, “IONIC LIQUIDS FOR DRUG DELIVERY” (PRESIDENT AND FELLOWS OF HARVARD COLLEGE, priority 2021, published 2024).

For the series the following is noted: rat, in vivo, sc.

For the substance acetylcholinium hexenoate DES [aCH], the “AUC at day 21, higher than the saline control” value is 103% and the “AUC versus saline control” value is “higher AUC”.
